This test has as its target MGLL (Macaca mulatta, UniProt H9ESL3). In words: PET brain imaging, screening and dose occupancy (blockade) studies in rhesus monkeys.

The chains behind the UniProt entries cited, without tags or fusion partners. Residues count along the entry.
UniProt H9ESL3, 1-303: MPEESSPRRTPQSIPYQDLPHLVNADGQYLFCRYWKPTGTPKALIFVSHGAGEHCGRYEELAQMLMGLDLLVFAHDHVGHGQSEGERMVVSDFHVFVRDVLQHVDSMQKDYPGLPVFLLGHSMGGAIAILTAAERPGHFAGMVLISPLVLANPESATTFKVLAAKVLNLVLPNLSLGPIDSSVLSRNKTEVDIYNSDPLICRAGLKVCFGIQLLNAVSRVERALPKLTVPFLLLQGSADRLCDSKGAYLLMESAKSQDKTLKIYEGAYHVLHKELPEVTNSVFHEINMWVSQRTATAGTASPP

The structures appear in SMILES notation.

Take `O=C(OC(C(F)(F)F)C(F)(F)F)N1CCN(Cc2ccc(C(F)(F)F)cc2N2CCCC2)CC1`: the “MGLL enzyme occupancy in brain” value (0.91 mg/kg i.v., highest dose tested) is 100%. In addition, the “ED50 for blockade of Compound 8F PET signal (brain MGLL occupancy)” value (i.v. over 5 min, 90 min before radiotracer, average) was found to be 0.05 mg/kg.
